Here are results for 15 compounds from patent publication US20240360179A1, “STAPLED PEPTIDES AND METHODS THEREOF” (FOG PHARMACEUTICALS, INC., priority 2021, published 2024).

By UniProt entry, the sequences of proteins in these tests, tags left out.
UniProt P35222, whole entry: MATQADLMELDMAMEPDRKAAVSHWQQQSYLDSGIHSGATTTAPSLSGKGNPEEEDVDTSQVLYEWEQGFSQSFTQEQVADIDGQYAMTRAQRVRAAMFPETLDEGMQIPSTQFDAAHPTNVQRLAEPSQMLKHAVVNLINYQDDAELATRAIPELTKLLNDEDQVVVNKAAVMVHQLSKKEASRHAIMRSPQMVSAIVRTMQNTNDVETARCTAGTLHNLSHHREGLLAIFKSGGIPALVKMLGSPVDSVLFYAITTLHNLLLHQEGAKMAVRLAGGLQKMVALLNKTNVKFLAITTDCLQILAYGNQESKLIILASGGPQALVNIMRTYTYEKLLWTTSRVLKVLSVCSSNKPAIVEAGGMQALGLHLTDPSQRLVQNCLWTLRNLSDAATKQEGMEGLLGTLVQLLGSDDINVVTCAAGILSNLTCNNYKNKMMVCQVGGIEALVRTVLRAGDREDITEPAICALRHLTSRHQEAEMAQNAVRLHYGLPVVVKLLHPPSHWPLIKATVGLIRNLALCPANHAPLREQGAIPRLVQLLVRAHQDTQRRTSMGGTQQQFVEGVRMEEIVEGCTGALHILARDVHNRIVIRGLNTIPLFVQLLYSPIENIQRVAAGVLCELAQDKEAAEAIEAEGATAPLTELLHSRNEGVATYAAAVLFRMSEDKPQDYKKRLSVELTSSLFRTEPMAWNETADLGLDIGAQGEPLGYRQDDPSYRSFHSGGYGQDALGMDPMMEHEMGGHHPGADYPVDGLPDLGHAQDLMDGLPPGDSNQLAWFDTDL

Each structure is given as a SMILES string.

As usually defined, the IC50 is the point on the concentration scale where inhibition reaches its midpoint. A lower IC50 goes with higher potency.

The experiment deals with T1, full-length B-Catenin (Uniprot ID P35222) (Homo sapiens, UniProt P35222).
T1 construct: 10 nM full-length B-Catenin (Uniprot ID P35222)
Briefly: biochemical. The experiment is classed as binding. The conditions noted are these: beta-Catenin FP IC50 (nM), competition fluorescence polarization. A general note: In fluorescence polarisation assays a small probe gives low polarisation when free and higher when bound to something large.
With `CC(=O)N1CCC[C@]12CC=CCCCC1(CCCC=CCCCOC(=O)N3CC[C@@]4(C3)NC(=O)[C@H](CCCCNC(=O)CC[C@@H](C(=O)N[C@@H](C)C(N)=O)NC(=O)[C@H](Cc3csc5ccccc35)NC(=O)[C@H](Cc3ccsc3)NC4=O)NC(=O)[C@H](C(C)C)NC(=O)[C@H](C)NC(=O)C(C)(C)NC(=O)[C@H](Cc3cccc(C(=O)O)c3)NC(=O)[C@H](CC(=O)O)NC1=O)NC(=O)[C@H](CC(C)(C)C)NC(=O)[C@H](CC(=O)O)NC2=O` (relative stereo) [I-372, Ac-PL3-Asp-Npg-B5-Asp-3COOHF-Aib-Ala-Val-Lys*3-PyrS2-3Thi-BztA-GlnR*3-Ala-NH2], the half-inhibitory concentration (IC50) is greater than 1000 nM.

`CC(=O)N1CCC[C@]12CC=CCCCC1(CCCC=CCCCOC(=O)N3CC[C@@]4(C3)NC(=O)[C@H](CCCCNC(=O)CC[C@@H](C(=O)N[C@@H](C)C(N)=O)NC(=O)[C@H](Cc3csc5ccccc35)NC(=O)[C@H](Cc3ccsc3)NC4=O)NC(=O)[C@H](CC(N)=O)NC(=O)[C@H](C)NC(=O)C(C)(C)NC(=O)[C@H](Cc3cccc(C(=O)O)c3)NC(=O)[C@H](CC(=O)O)NC1=O)NC(=O)[C@H](CC(C)(C)C)NC(=O)[C@H](CC(=O)O)NC2=O` (relative stereo) [I-373, Ac-PL3-Asp-Npg-B5-Asp-3COOHF-Aib-Ala-Asn-Lys*3-PyrS2-3Thi-BztA-GlnR*3-Ala-NH2]: the IC50 is greater than 1000 nM. Under `CC(=O)N1CCC[C@]12CC=CCCCC1(CCCC=CCCCOC(=O)N3CC[C@@]4(C3)NC(=O)[C@H](CCCCNC(=O)CC[C@@H](C(=O)N[C@@H](C)C(N)=O)NC(=O)[C@H](Cc3csc5ccccc35)NC(=O)[C@H](Cc3ccsc3)NC4=O)NC(=O)[C@H](CCC(N)=O)NC(=O)[C@H](C)NC(=O)C(C)(C)NC(=O)[C@H](Cc3cccc(C(=O)O)c3)NC(=O)[C@H](CC(=O)O)NC1=O)NC(=O)[C@H](CC(C)(C)C)NC(=O)[C@H](CC(=O)O)NC2=O` (relative stereo) [I-374, Ac-PL3-Asp-Npg-B5-Asp-3COOHF-Aib-Ala-Gln-Lys*3-PyrS2-3Thi-BztA-GlnR*3-Ala-NH2] stands 200 to 750 nM. `CC(=O)N1CCC[C@]12CC=CCCCC1(CCCC=CCCCOC(=O)N3CC[C@@]4(C3)NC(=O)[C@H](CCCCNC(=O)CC[C@@H](C(=O)N[C@@H](C)C(N)=O)NC(=O)[C@H](Cc3csc5ccccc35)NC(=O)[C@H](Cc3ccsc3)NC4=O)NC(=O)[C@H](C3CC3)NC(=O)[C@H](C)NC(=O)C(C)(C)NC(=O)[C@H](Cc3cccc(C(=O)O)c3)NC(=O)[C@H](CC(=O)O)NC1=O)NC(=O)[C@H](CC(C)(C)C)NC(=O)[C@H](CC(=O)O)NC2=O` (relative stereo) [I-395, Ac-PL3-Asp-Npg-B5-Asp-3COOHF-Aib-Ala-2Cpg-Lys*3-PyrS2-3Thi-BztA-GlnR*3-Ala-NH2] displayed an IC50 greater than 1000 nM.

As for `CC(=O)N1CCC[C@]12CC=CCCCC1(CCCC=CCCCOC(=O)N3CC[C@@]4(C3)NC(=O)[C@H](CCCCNC(=O)CC[C@@H](C(=O)N[C@H](CC(C)C)C(=O)N[C@@H](CO)C(N)=O)NC(=O)[C@H](Cc3csc5ccccc35)NC(=O)[C@H](Cc3ccsc3)NC4=O)NC(=O)[C@H](Cc3ccccc3)NC(=O)[C@H](C)NC(=O)C(C)(C)NC(=O)[C@H](Cc3cccc(C(=O)O)c3)NC(=O)[C@H](CC(=O)O)NC1=O)NC(=O)[C@H](CC(C)(C)C)NC(=O)[C@H](CC(=O)O)NC2=O` (relative stereo) [I-463, Ac-PL3-Asp-Npg-B5-Asp-3COOHF-Aib-Ala-Phe-Lys*3-PyrS2-3Thi-BztA-GlnR*3-dLeu-Ser-NH2], the half-inhibitory concentration (IC50) was less than 50 nM. As for `CC(=O)N1CCC[C@]12CC=CCCCC1(CCCC=CCCCOC(=O)N3CC[C@@]4(C3)NC(=O)[C@H](CCCCNC(=O)CC[C@@H](C(=O)N[C@@H](C)C(N)=O)NC(=O)[C@H](Cc3csc5ccccc35)NC(=O)[C@H](Cc3ccsc3)NC4=O)NC(=O)[C@H](Cc3ccccc3)NC(=O)[C@H](CC(=O)O)NC(=O)C(C)(C)NC(=O)[C@H](Cc3cccc(C(=O)O)c3)NC(=O)[C@H](CC(=O)O)NC1=O)NC(=O)[C@H](CC(C)(C)C)NC(=O)[C@H](CC(=O)O)NC2=O` (relative stereo) [I-521, Ac-PL3-Asp-Npg-B5-Asp-3COOHF-Aib-Asp-Phe-Lys*3-PyrS2-3Thi-BztA-GlnR*3-Ala-NH2], the concentration for half-maximal inhibition (IC50) was less than 50 nM. In the case of `CC(=O)N1CCC[C@]12CC=CCCCC1(CCCC=CCCCOC(=O)N3CC[C@@]4(C3)NC(=O)[C@H](CCCCNC(=O)CC[C@@H](C(=O)N[C@@H](C)C(N)=O)NC(=O)[C@H](Cc3csc5ccccc35)NC(=O)[C@H](Cc3ccsc3)NC4=O)NC(=O)[C@H](Cc3ccccc3)NC(=O)[C@H](CC(=O)O)NC(=O)C(C)(C)NC(=O)[C@H](Cc3cccc(C(=O)O)c3)NC(=O)[C@H]([C@H](C)O)NC1=O)NC(=O)[C@H](CC(C)(C)C)NC(=O)[C@H](CC(=O)O)NC2=O` (relative stereo) [I-522, Ac-PL3-Asp-Npg-B5-aThr-3COOHF-Aib-Asp-Phe-Lys*3-PyrS2-3Thi-BztA-GlnR*3-Ala-NH2] it was 200 to 750 nM; in that of `CC(=O)N1CCC[C@]12CC=CCCCC1(CCCC=CCCCOC(=O)N3CC[C@@]4(C3)NC(=O)[C@H](CCCCNC(=O)CC[C@@H](C(=O)N[C@@H](C)C(N)=O)NC(=O)[C@H](Cc3csc5ccccc35)NC(=O)[C@H](Cc3ccsc3)NC4=O)NC(=O)[C@H](Cc3ccccc3)NC(=O)[C@H](CCC(=O)O)NC(=O)C(C)(C)NC(=O)[C@H](Cc3cccc(C(=O)O)c3)NC(=O)[C@H](CC(=O)O)NC1=O)NC(=O)[C@H](CC(C)(C)C)NC(=O)[C@H](CC(=O)O)NC2=O` (relative stereo) [I-523, Ac-PL3-Asp-Npg-B5-Asp-3COOHF-Aib-Glu-Phe-Lys*3-PyrS2-3Thi-BztA-GlnR*3-Ala-NH2], less than 50 nM; in that of `CC(=O)N1CCC[C@]12CC=CCCCC1(CCCC=CCCCOC(=O)N3CC[C@@]4(C3)NC(=O)[C@H](CCCCNC(=O)CC[C@@H](C(=O)N[C@@H](C)C(N)=O)NC(=O)[C@H](Cc3csc5ccccc35)NC(=O)[C@H](Cc3ccsc3)NC4=O)NC(=O)[C@H](Cc3ccccc3)NC(=O)[C@H](CCC(=O)O)NC(=O)C(C)(C)NC(=O)[C@H](Cc3cccc(C(=O)O)c3)NC(=O)[C@H]([C@H](C)O)NC1=O)NC(=O)[C@H](CC(C)(C)C)NC(=O)[C@H](CC(=O)O)NC2=O` (relative stereo) [I-524, Ac-PL3-Asp-Npg-B5-aThr-3COOHF-Aib-Glu-Phe-Lys*3-PyrS2-3Thi-BztA-GlnR*3-Ala-NH2], 50 to 200 nM. Under `CC(=O)N1CCC[C@]12CC=CCCCC1(CCCC=CCCCOC(=O)N3CC[C@@]4(C3)NC(=O)[C@H](CCCCNC(=O)CC[C@@H](C(=O)N[C@@H](C)C(N)=O)NC(=O)[C@H](Cc3csc5ccccc35)NC(=O)[C@H](Cc3ccsc3)NC4=O)NC(=O)[C@H](Cc3ccccc3)NC(=O)[C@H](CCCC(=O)O)NC(=O)C(C)(C)NC(=O)[C@H](Cc3cccc(C(=O)O)c3)NC(=O)[C@H](CC(=O)O)NC1=O)NC(=O)[C@H](CC(C)(C)C)NC(=O)[C@H](CC(=O)O)NC2=O` (relative stereo) [I-525, Ac-PL3-Asp-Npg-B5-Asp-3COOHF-Aib-Aad-Phe-Lys*3-PyrS2-3Thi-BztA-GlnR*3-Ala-NH2] stands less than 50 nM; under `CC(=O)N1CCC[C@]12CC=CCCCC1(CCCC=CCCCOC(=O)N3CC[C@@]4(C3)NC(=O)[C@H](CCCCNC(=O)CC[C@@H](C(=O)N[C@@H](C)C(N)=O)NC(=O)[C@H](Cc3csc5ccccc35)NC(=O)[C@H](Cc3ccsc3)NC4=O)NC(=O)[C@H](Cc3ccccc3)NC(=O)[C@H](CCCC(=O)O)NC(=O)C(C)(C)NC(=O)[C@H](Cc3cccc(C(=O)O)c3)NC(=O)[C@H]([C@H](C)O)NC1=O)NC(=O)[C@H](CC(C)(C)C)NC(=O)[C@H](CC(=O)O)NC2=O` (relative stereo) [I-526, Ac-PL3-Asp-Npg-B5-aThr-3COOHF-Aib-Aad-Phe-Lys*3-PyrS2-3Thi-BztA-GlnR*3-Ala-NH2], 200 to 750 nM; under `CC(=O)N1CCC[C@]12CC=CCCCC1(CCCC=CCCCOC(=O)N3CC[C@@]4(C3)NC(=O)[C@H](CCCCNC(=O)CC[C@@H](C(=O)N[C@@H](C)C(N)=O)NC(=O)[C@H](Cc3csc5ccccc35)NC(=O)[C@H](Cc3ccsc3)NC4=O)NC(=O)[C@H](Cc3ccccc3)NC(=O)[C@H](Cc3ccccc3)NC(=O)C(C)(C)NC(=O)[C@H](Cc3cccc(C(=O)O)c3)NC(=O)[C@H](CC(=O)O)NC1=O)NC(=O)[C@H](CC(C)(C)C)NC(=O)[C@H](CC(=O)O)NC2=O` (relative stereo) [I-529, Ac-PL3-Asp-Npg-B5-Asp-3COOHF-Aib-Phe-Phe-Lys*3-PyrS2-3Thi-BztA-GlnR*3-Ala-NH2], less than 50 nM. In the case of `CC(=O)N1CCC[C@]12CC=CCCCC1(CCCC=CCCCOC(=O)N3CC[C@@]4(C3)NC(=O)[C@H](CCCCNC(=O)CC[C@@H](C(=O)N[C@@H](C)C(N)=O)NC(=O)[C@H](Cc3csc5ccccc35)NC(=O)[C@H](Cc3ccsc3)NC4=O)NC(=O)[C@H](Cc3ccccc3)NC(=O)[C@H](CCc3ccccc3)NC(=O)C(C)(C)NC(=O)[C@H](Cc3cccc(C(=O)O)c3)NC(=O)[C@H](CC(=O)O)NC1=O)NC(=O)[C@H](CC(C)(C)C)NC(=O)[C@H](CC(=O)O)NC2=O` (relative stereo) [I-530, Ac-PL3-Asp-Npg-B5-Asp-3COOHF-Aib-hPhe-Phe-Lys*3-PyrS2-3Thi-BztA-GlnR*3-Ala-NH2] it was less than 50 nM; in that of `CC(=O)N1CCC[C@]12CC=CCCCC1(CCCC=CCCCOC(=O)N3CC[C@@]4(C3)NC(=O)[C@H](CCCCNC(=O)CC[C@@H](C(=O)N[C@@H](C)C(N)=O)NC(=O)[C@H](Cc3csc5ccccc35)NC(=O)[C@H](Cc3ccsc3)NC4=O)NC(=O)[C@H](Cc3ccccc3)NC(=O)[C@H](CCc3ccc(O)cc3)NC(=O)C(C)(C)NC(=O)[C@H](Cc3cccc(C(=O)O)c3)NC(=O)[C@H](CC(=O)O)NC1=O)NC(=O)[C@H](CC(C)(C)C)NC(=O)[C@H](CC(=O)O)NC2=O` (relative stereo) [I-533, Ac-PL3-Asp-Npg-B5-Asp-3COOHF-Aib-hTyr-Phe-Lys*3-PyrS2-3Thi-BztA-GlnR*3-Ala-NH2], less than 50 nM. Take `CC(=O)NCCCC[C@@H]1NC(=O)C(C)(C)NC(=O)[C@H](Cc2cccc(C(=O)O)c2)NC(=O)[C@H](CC(=O)O)NC(=O)C2(CCCC=CCCCOC(=O)N3CC[C@@]4(C3)NC(=O)[C@H](CCCCNC(=O)CC[C@@H](C(=O)N[C@@H](C)C(N)=O)NC(=O)[C@H](Cc3csc5ccccc35)NC(=O)[C@H](Cc3ccsc3)NC4=O)NC(=O)[C@H](Cc3ccccc3)NC1=O)CCCC=CC[C@]1(CCCN1C(C)=O)C(=O)N[C@@H](CC(=O)O)C(=O)N[C@@H](CC(C)(C)C)C(=O)N2` (relative stereo) [I-534, Ac-PL3-Asp-Npg-B5-Asp-3COOHF-Aib-AcLys-Phe-Lys*3-PyrS2-3Thi-BztA-GlnR*3-Ala-NH2]: the IC50 is less than 50 nM.
